# “Also recorded” adds a separate entry of the source.
# What was measured:
# [1] = tested on: patients with severe TRMD; test: Phase 2 double-blind randomized placebo-controlled crossover trial, single 1-hour inhalation; Hamilton Depression Rating Scale (HDRS-21, primary outcome); format: in vivo, human
# Source text: The study was a single-center, double-blind, randomized placebo-controlled crossover trial. All subjects underwent three one-hour inhalation sessions in random order, each separated by at least 4 weeks. The sessions included: placebo (0% N20), 25% N20, and 50% N20 balanced with air/oxygen. Blinding was executed by separating locations and teams for inhalation treatments and psychiatric evaluations. Only the anesthesia team administering the inhalation treatments was aware of study group assignment; all other participants, including patients and raters, were blinded. Likewise, the study setup was identical for all sessions, and gas flow meters were concealed, making inadvertent unblinding unlikely. The study was approved by the Washington University in St. Louis Institutional Review Board, and all patients provided written, informed consent. The trial was registered at clinicaltrials.gov (NCT03283670).
# Patients were recruited from an existing database of TRMD patients identified through participation in a secondary referral clinic for TRMD at Washington University Department of Psychiatry, as well as from the “Volunteers for Health” patient pool (individuals with various medical/psychiatric conditions who volunteer to participate in clinical research) within Washington University School of Medicine. […] Patients were instructed to continue their current standard of care MDD treatment and to maintain a stable psychotropic medication dosage or psychotherapy regimen for 4 weeks prior to initiation of the study and throughout the study. Further, patients were instructed not to modify their antidepressant treatments during the three month course of the trial (i.e., discouraged from adding new antidepressants or modifying existing antidepressant dosages).
# Following the in-person screen, each of the three treatment sessions consisted of […]: pre-inhalation mood assessment, inhalation, and post-inhalation follow-up sessions at 22-28 hours, 1 week, and 2 weeks. An additional assessment was completed 4 weeks following the final inhalation treatment.
# All three inhalation sessions were scheduled for one hour. […] Except for the choice of inhalational gas admixture, treatment sessions were otherwise identical. The gas mix was administered via a standard anesthesia facemask through tubing connected to the anesthesia machine or an FDA-approved Porter/Praxair MXR breathing circuit. A small sample connector line was inserted into the facemask allowing the measurement of inhaled and exhaled gas concentrations. […] Patients were monitored during and after the treatment according to American Society of Anesthesiologists standards which include continuous 3-lead ECG, pulse oximetry, non-invasive blood pressure, and end tidal CO2 measurement under the supervision of an attending-level anesthesiologist. After the one-hour treatment session, patients were monitored in a recovery room for up to one hour at which time a study team physician determined whether the patient met criteria for discharge.
# Data were collected at (a) baseline (prior to each inhalation session), (b) 2-hours, (c) 24 hours, (d) 1 week, and (e) 2 weeks after inhalation. Efficacy of the inhalation treatment on mood was measured using the following: Hamilton Depression Rating Scale 21-item (HDRS-21; primary outcome); Montgomery-Asberg Depression Rating Scale (MADRS); Quick Inventory of Depressive Symptomology-Self Report (QIDS-SR); and the Profile of Mood States 2nd Edition (POMS-2).
# [2] = tested on: patients with severe TRMD; details: human, in vivo
# Source text: The study was a single-center, double-blind, randomized placebo-controlled crossover trial. All subjects underwent three one-hour inhalation sessions in random order, each separated by at least 4 weeks. The sessions included: placebo (0% N20), 25% N20, and 50% N20 balanced with air/oxygen. Blinding was executed by separating locations and teams for inhalation treatments and psychiatric evaluations. Only the anesthesia team administering the inhalation treatments was aware of study group assignment; all other participants, including patients and raters, were blinded. […]
# All three inhalation sessions were scheduled for one hour. […] Patients were monitored during and after the treatment according to American Society of Anesthesiologists standards which include continuous 3-lead ECG, pulse oximetry, non-invasive blood pressure, and end tidal CO2 measurement under the supervision of an attending-level anesthesiologist. After the one-hour treatment session, patients were monitored in a recovery room for up to one hour at which time a study team physician determined whether the patient met criteria for discharge.
# Data were collected at (a) baseline (prior to each inhalation session), (b) 2-hours, (c) 24 hours, (d) 1 week, and (e) 2 weeks after inhalation. […] Additionally, adequacy of the blind was assessed by a Blinding Questionnaire given after completion of each inhalation session. […]
# [3] = after 50% nitrous oxide, 95% CI 0.57-18.02
structure (smiles),measurement,setting,value
[N-]=[N+]=O [nitrous oxide],Overall effect of nitrous oxide (both groups) compared to placebo on the primary outcome (HDRS-21),"[1]; 25% and 50% groups together, two weeks of observation, p=0.01",significantly improved depressive symptoms versus placebo; also recorded: significant
same,Linear increase of effect over time relative to placebo (HDRS-21),[1]; 25% nitrous oxide group,−1.38 per measurement occasion
same,Linear increase of effect over time relative to placebo (HDRS-21),[1]; 50% nitrous oxide group,−1.55 per measurement occasion
same,Relative risk (RR) of remission,"[1]; after 25% nitrous oxide, 95% CI 0.27-12.84",1.82
same,Relative risk (RR) of treatment response,"[1]; after 25% nitrous oxide, 95% CI 0.43-16.30",2.50
same,Relative risk (RR) of remission,[1]; [3],2.94
same,Relative risk (RR) of treatment response,[1]; [3],2.94
same,Duration of antidepressant effects,"[1]; single one-hour inhalation, 25% or 50%",up to four weeks; also recorded: between two and four weeks
same,Difference between 25% and 50% nitrous oxide on HDRS-21,"[1]; two weeks of observation, p=0.58",no statistically significant difference
same,Shoulder/Arm Pain,[2],1 (4%)
